This is a selection; strong and weak results do not stand in their true shares. Some results for these compounds are left out of this collection, so the calls shown say nothing about other tests. The source made the active and inactive calls.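 Rule for the calls: active = activation above the mean of all tested compounds plus 3 SD, set per screening campaign (cut at about 17% in these data); inactive = the rest.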
Target: Insulin-degrading enzyme (Homo sapiens) (UniProt P14735)
Test: enhanced cellular IDE Abeta cleavage – fluorescence polarization, HEK cells, FAbeta-B substrate, primary screen (AID 493087)
Conditions: at 5.96 µM, hits give high values, 0% vehicle, 100% cell-free pure enzyme wells

Protein sequences, listed by entry. Tags and fused reporters are not part of them.
UniProt P14735, whole entry: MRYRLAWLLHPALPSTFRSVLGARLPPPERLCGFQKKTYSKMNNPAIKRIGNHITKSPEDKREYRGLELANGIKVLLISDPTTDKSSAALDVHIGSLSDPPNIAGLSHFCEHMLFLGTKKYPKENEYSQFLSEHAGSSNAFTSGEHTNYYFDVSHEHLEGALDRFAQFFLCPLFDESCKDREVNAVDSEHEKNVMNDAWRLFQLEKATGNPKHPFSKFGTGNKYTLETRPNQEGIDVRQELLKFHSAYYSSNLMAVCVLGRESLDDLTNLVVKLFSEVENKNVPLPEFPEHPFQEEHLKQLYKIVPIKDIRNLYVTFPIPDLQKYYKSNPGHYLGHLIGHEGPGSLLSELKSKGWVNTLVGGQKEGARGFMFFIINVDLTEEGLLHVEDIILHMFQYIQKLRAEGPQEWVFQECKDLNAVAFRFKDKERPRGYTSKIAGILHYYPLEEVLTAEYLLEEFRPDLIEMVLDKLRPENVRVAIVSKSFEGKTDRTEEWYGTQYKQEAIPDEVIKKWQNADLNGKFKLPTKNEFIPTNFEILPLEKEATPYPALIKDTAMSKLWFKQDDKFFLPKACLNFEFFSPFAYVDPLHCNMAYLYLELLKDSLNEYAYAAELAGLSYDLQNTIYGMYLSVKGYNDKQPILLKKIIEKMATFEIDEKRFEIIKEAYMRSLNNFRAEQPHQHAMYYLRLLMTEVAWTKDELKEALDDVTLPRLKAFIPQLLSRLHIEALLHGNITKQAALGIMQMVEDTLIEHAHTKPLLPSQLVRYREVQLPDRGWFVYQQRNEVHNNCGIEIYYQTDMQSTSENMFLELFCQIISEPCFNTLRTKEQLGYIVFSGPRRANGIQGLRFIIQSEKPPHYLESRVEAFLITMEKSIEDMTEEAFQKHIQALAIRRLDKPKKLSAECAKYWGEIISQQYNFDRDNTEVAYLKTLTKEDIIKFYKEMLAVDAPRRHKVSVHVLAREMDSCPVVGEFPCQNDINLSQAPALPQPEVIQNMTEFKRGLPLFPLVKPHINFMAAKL

SMILES	activation
Cc1ccccc1C(=O)NCC1(N2CCCCC2)CCCCC1	inactive: 4.6%
CN(C)C1CCCC1OC(=O)C(O)(c1ccccc1)c1ccccc1 (stereo not given)	inactive: 1.02%
CN(C)c1ccc(C(=O)NCC2(N(C)C)CCCCC2)cc1	inactive: -1.96%
C=CCN1CCN(CCOC(=O)C(O)(c2ccccc2)c2ccccc2)CC1	inactive: 0.49%
O=C(NCC1(N2CCCCC2)CCCCC1)c1cc(F)c(F)cc1Cl	inactive: 0.24%
COc1ccc(C(=O)NCC2(N(C)C)CCCCC2)cc1	inactive: -3%
Cc1cc(C(=O)NCC2(N3CCCCC3)CCCCC2)ccc1[N+](=O)[O-]	inactive: 2.08%
CCN1CCCC(OC(=O)C2(O)c3ccccc3C=Cc3ccccc32)C1 (stereo not given)	inactive: 1.27%
O=C(NCC1(N2CCCCC2)CCCCC1)c1cccc(Br)c1	inactive: 1.32%
O=C(NCC1(N2CCCCC2)CCCCC1)c1cc([N+](=O)[O-])ccc1Cl	inactive: 0.49%
CN1[C@@H]2CC[C@H]1CC(OC(=O)C(O)(c1ccccc1)c1ccccc1)C2 (stereo not given in full)	inactive: -1.35%
CCN(CC)CC(C)C(C)OC(=O)C(O)(c1ccccc1)c1ccccc1 (stereo not given)	inactive: 0.02%
COc1cc(SC)ccc1C(=O)NCC1(N(C)C)CCCCC1	inactive: 4.22%
CC(C)N1C(=O)CC2(CCN(CCOC(=O)C(O)(c3ccccc3)c3ccccc3)CC2)C1=O	inactive: 1.28%
Cc1ccc(C(=O)NCC2(N3CCCCC3)CCCCC2)cc1	inactive: -0.48%
O=C(OC1CN2CCC1CC2)C(CO)(c1ccccc1)c1ccccc1 (stereo not given)	inactive: 2.48%
COc1ccc(Br)c(C(=O)NCC2(N3CCCCC3)CCCCC2)c1	inactive: -3.84%
CC(C)Oc1ccc(C(=O)NCC2(N(C)C)CCCCC2)cc1	inactive: 4.39%
O=C(OCCN1CCCC1)C(O)(c1ccccc1)c1ccccc1	inactive: 5.09%
CN(C)c1cccc(C(=O)NCC2(N(C)C)CCCCC2)c1	inactive: -2.65%
CN(C)C1(CNC(=O)c2ccc(Br)cc2)CCCCC1	inactive: 7.77%
COc1cc(C(=O)NCC2(N(C)C)CCCCC2)c([N+](=O)[O-])cc1OC	inactive: 2.89%
COc1cccc(C(=O)NCC2(N3CCCCC3)CCCCC2)c1	inactive: -1.61%
COc1ccc(Cl)cc1C(=O)NCC1(N(C)C)CCCCC1	inactive: 3.26%
O=C(NCC1(N2CCCCC2)CCCCC1)c1cccc(Cl)c1	inactive: 5.62%
